Test results published in article PMC10459521, “Unfolding the Antibacterial Activity and Acetylcholinesterase Inhibition Potential of Benzofuran-Triazole Hybrids: Synthesis, Antibacterial, Acetylcholinesterase Inhibition, and Molecular Docking Studies” (Molecules, 2023).

The chains behind the UniProt entries cited, without tags or fusion partners. Residues count along the entry.
UniProt P22303, 32-614: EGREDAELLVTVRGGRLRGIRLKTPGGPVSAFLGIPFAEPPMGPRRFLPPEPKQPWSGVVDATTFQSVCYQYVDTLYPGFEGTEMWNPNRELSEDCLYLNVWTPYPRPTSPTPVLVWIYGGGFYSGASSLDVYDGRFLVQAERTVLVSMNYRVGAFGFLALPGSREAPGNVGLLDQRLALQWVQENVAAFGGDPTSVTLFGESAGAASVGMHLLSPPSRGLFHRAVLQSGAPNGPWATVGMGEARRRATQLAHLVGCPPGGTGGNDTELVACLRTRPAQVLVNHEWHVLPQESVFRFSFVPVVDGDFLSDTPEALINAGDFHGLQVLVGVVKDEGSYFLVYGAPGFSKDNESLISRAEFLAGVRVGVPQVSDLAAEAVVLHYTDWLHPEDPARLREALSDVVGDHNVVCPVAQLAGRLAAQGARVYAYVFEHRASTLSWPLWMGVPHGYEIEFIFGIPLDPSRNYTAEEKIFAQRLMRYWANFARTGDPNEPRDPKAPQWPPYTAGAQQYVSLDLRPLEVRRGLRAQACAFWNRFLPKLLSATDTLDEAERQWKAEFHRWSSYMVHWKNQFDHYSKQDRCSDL

Target: acetylcholinesterase (AChE) (Homo sapiens, UniProt P22303)
Test: AChE inhibition assay (modified Ellman's method)
Type: biochemical
Method: The inhibitory effects of all synthesized derivatives on AChE activities were measured using a modified Ellman’s method. This experimental study used DTNB (5,5′-dithio-bis(2-nitro-benzoic)acid) and AChI as the […]. The tested compounds (10 µL; […]) were mixed with AChE (50 µL; 38 U) solution and incubated for 10 min at 25 °C. DTNB (50 µL; 0.3 mM) was then added. The transfer of AChI (200 µL; 50 mM Tris/HCl buffer pH = 8) initiated the reaction. A spectrophotometer recorded the hydrolysis of AChI by the formation of yellow 5-thio-2-nitrobenzoate anions as a result of the reaction of DTNB with thiocholine at a wavelength of 412 nm. […] The given formula was used to calculate the (%) inhibition: Inhibition %=Control−Test/Control×100
IC50 values were calculated using data from GraphPad Prism 5 software.

With CNC(=O)Oc1ccc2c(c1)[C@]1(C)CCN(C)[C@@H]1N2C [Eserine, eserine, reference compound] the “Inhibition % (0.5 mM)” value was 93.20 ± 1.15%.
